# Screens (PubChem BioAssay)
# FN deposition inh – fibronectin deposition inhibition; AH1F fibroblasts, Alexa488-fibronectin deposition fluorescence, overnight; inhibition, % at 12.6 µM; 350,000 tested, 0.086% active; AID 743247;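 active = mean inhibition across replicates of 30% or more, regardless of how many single replicates reach that level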;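 also: positive control wells lacked labelled fibronectin entirely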
#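 Assay system: AH1F fibroblasts assembling fluorescent fibronectin matrix; Amount: 10000 AH1F cells per well; Buffer or medium: DMEM, 2% serum; Probe or stimulus: Alexa488-fibronectin, 24 nM final in well; Doses: single compound dose, delivered by pin transfer; Incubation: 1 h adhesion, overnight exposure; Measured by: fluorescence 485/525 nm; Read-out: fibronectin deposition inhibition.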
# UUG fidelity – modulators of yeast start codon fidelity, primary screen, whole organism, S. cerevisiae, single point, plate reader | AID 602363, 2012 | S. cerevisiae UUG-firefly luciferase reporter, luminescence/redox ratio | activity score, % at 18.7 µM | hit rate 0.13% among 350,000;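 active = replicate mean at a twofold rise or more, about +100% in these data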;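 also: firefly luciferase made from a UUG start codon reports start codon fidelity; reporter light over untreated wells divided by growth signal over untreated wells; some hits fall short of that in this replicate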
# Env fusion inh – inhibitors of HIV Env-mediated cell fusion | HeLa-JRFL Env/CEM21 cell fusion, luciferase | inhibition, % at 12.3 µM | 360,000 tested, 1.1% active | AID 651610;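 active = mean replicate inhibition score of at least 50 and every replicate individually at or above 50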;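 also: 0% = plate neutral controls and 100% = maraviroc near 300 nM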
# miR-122 sensor – inhibitors of miR-122 in Huh7 cells; Huh7 miR-122 Renilla luciferase sensor, 48 h; neutral wells = 0, positive control = 100; activation (reporter increase), % at 12.5 µM; 340,000 tested, 0.3% active;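 active = mean replicate activation score at least 90 and every replicate individually at or above 90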;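 also: higher luciferase means less miR-122 activity so hits act as miR-122 inhibitors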
# PGC1a acetyl inh – modulators of PGC1a acetylation. U2OS PGC1a acetylation, AlphaScreen anti-acetyl-lysine; with virally co-expressed GCN5 acetyltransferase. inhibition, % at 15.6 µM. 350,000 tested, 0.17% active. AID 651687;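 active = every replicate shows inhibition of at least 40%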;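 also: 0% = neutral control wells and 100% = positive control wells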
# Cneo AK release – Cryptococcus neoformans lysis via adenylate kinase release | C. neoformans lysis, adenylate kinase release luminescence, 4 h; normalised: neutral wells 0, clomiphene wells 100 | 360,000 tested, 0.2% active | lysis activity, % at 15 µM | AID 651654;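 active = mean lysis activity across replicates of at least 80%, whatever share of replicates individually reach that level; inactive = mean lysis activity below 80%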
#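 Test system: log-phase Cryptococcus neoformans yeast cells; Quantity: yeast cell density of 5 × 10^6 cells/mL; Buffer or medium: YPD; Doses: single compound concentration per well; Timing: 4 h at 37 °C static, read 1 h later; Measured by: AK luminescence; Read-out basis: lysis from increased AK signal; Control set: Clomiphene as positive control.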
# The depositor's hits bear a star; . = no result; ! = not active in a repeat; [ ] = another dose, or the depositor's remark. Only some compounds are listed: those with a hit (about 1.5% of all), similar ones and a draw of the others.
item	Structure	miR-122 sensor	Env fusion inh	UUG fidelity
1	C=CCn1c(-c2cc3c(s2)CCC(CC)C3)n[nH]c1=S (stereo not given)	.	-8	.
2	COC(=O)C[C@@H]1C[C@@H]2c3cc(NS(=O)(=O)c4cccc(OC)c4)ccc3O[C@@H]2[C@@H](CO)O1	4[16.7 µM]	2[16.7 µM]	-1
3	COc1cccc(S(=O)(=O)Nc2ccc3c(c2)[C@H]2C[C@@H](CC(=O)O)O[C@@H](CO)[C@H]2O3)c1	.	.	.
4	COc1cccc(S(=O)(=O)Nc2ccc3c(c2)[C@H]2C[C@@H](CC(=O)NC4CCCCC4)O[C@@H](CO)[C@H]2O3)c1	15[16.7 µM]	-43[16.7 µM]	.
5	COC(=O)C[C@@H]1C[C@H]2c3cc(NS(=O)(=O)c4cccc(OC)c4)ccc3O[C@H]2[C@@H](CO)O1	-3[16.7 µM]	60*[16.7 µM]	-10
6	CCc1nc2c(OCc3ccc(Cl)cc3)cccn2c1N(C=O)Cc1ccccc1	-1	0	-12
7	CCCCn1c(N)c(N(CC)C(=O)c2cc(C)cc(C)c2)c(=O)[nH]c1=O	-6	4	-2
8	Cc1ccccc1NC(=O)CN1CCN(C)CC1	-3	15	-7
9	Cc1ccccc1NC(=O)CC1c2ccccc2CC(C)(C)N1C (stereo not given)	.	1	.
10	O=c1cc(-c2ccccc2Cl)oc2ccc([N+](=O)[O-])c(O)c12	2	-21	1
11	O=c1cc(-c2ccccc2Cl)oc2c([N+](=O)[O-])c(O)cc(O)c12	1	65*	-15
12	CCN(CC)S(=O)(=O)c1ccc(C(=O)NCCCN=C2NS(=O)(=O)c3ccccc32)cc1	7	.	-9

item	FN deposition inh	Cneo AK release	PGC1a acetyl inh
1	-14	.	.
2	.	6	-6
3	-5	.	-3
4	4	101*	-12
5	.	-2	-7
6	2	13	-8
7	-2	-2	-1
8	0	2	8
9	7	.	83*
10	-4	-2	7
11	-15	0	.
12	.	-2	-1

# The closing 2 compounds of the part above lead into the next.
item	Structure	miR-122 sensor	Env fusion inh	UUG fidelity
11	O=c1cc(-c2ccccc2Cl)oc2c([N+](=O)[O-])c(O)cc(O)c12	1	65*	-15
12	CCN(CC)S(=O)(=O)c1ccc(C(=O)NCCCN=C2NS(=O)(=O)c3ccccc32)cc1	7	.	-9
13	COc1ccc(-n2nc(C(=O)N3CCCCC3)c(C)c(C#N)c2=O)cc1	.	9	.
14	CC(C)(C)c1cccc(Cn2nnc3ccccc32)c1O	.	43	1
15	Cc1cc(Cn2nnc3ccccc32)c(O)c(C(C)(C)C)c1	134*	40	-9
16	COc1ccccc1CN(Cc1nc2ccccc2c(=O)[nH]1)S(=O)(=O)c1ccc2ccccc2c1	.	98*	.
17	O=C(NCc1cccc(F)c1)[C@@H]1[C@@H](CO)[C@@H]2Cn3c(ccc(-c4cccnc4)c3=O)[C@H]1N2CC1CC1	.	67*[16.7 µM]	.
18	CCCCC(=O)Nc1cc(OCC)c(NC(=O)c2ccccc2[N+](=O)[O-])cc1OCC	-1	.	-9
19	NC(=O)NCC#Cc1ccc2c(c1)[C@]1(C(=O)N2)[C@H](c2ccccc2OCCO)N2[C@H](c3ccccc3)[C@H](c3ccccc3)OC(=O)[C@H]2[C@@H]1C(=O)O	.	-18[16.7 µM]	5
20	NC(=O)NCC#Cc1ccc2c(c1)[C@]1(C(=O)N2)[C@H](C(N)=O)[C@H]2C(=O)O[C@H](c3ccccc3)[C@H](c3ccccc3)N2[C@@H]1c1ccccc1OCCO	.	-5[16.7 µM]	31
21	Cc1cccc(C)c1NC(=O)C1C(c2ccccc2)=Nc2ccccc2N1C(=O)c1cnccn1 (stereo not given)	.	64*	.
22	CC1Sc2n(c3ccccc3[n+]2C)N=C1c1ccccc1 (stereo not given)	.	60*	.
23	C[n+]1c2n(c3ccccc31)N=C(c1ccc(Cl)cc1)CS2	8	33	-19
24	Cc1cc(OCC(=O)OCC(=O)N(C)c2c(N)n(Cc3ccccc3)c(=O)[nH]c2=O)ccc1Cl	.	-3	.

item	FN deposition inh	Cneo AK release	PGC1a acetyl inh
11	-15	0	.
12	.	-2	-1
13	-18	.	-2
14	1	-2	.
15	3	-1	-22
16	-5	.	.
17	.	-1	.
18	.	-1	-6
19	.	0	.
20	.	96*	.
21	-1	.	.
22	0	.	.
23	7	0	.
24	-5	.	.

# (more compounds)
item	Structure	miR-122 sensor	Env fusion inh	UUG fidelity
25	COc1ccc(S(=O)(=O)Cc2ccc(C(=O)NC3CCCC3)o2)cc1	-4	23	2
26	COc1ccc(/C=C2/N=C(SCC(=O)Nc3cc(C)on3)N(c3ccccc3)C2=O)cc1	-9	.	-4
27	CCC(SC1=N/C(=C/c2ccccc2)C(=O)N1c1ccccc1)C(=O)Nc1cc(C)on1 (stereo not given)	341*	3	-15
28	O=C(CCCCCn1c(=O)[nH]c2ccccc2c1=O)NC1CCCC1	.	30	.
29	COc1ccc(S(=O)(=O)Nc2cccc3c2O[C@H](CN(C)Cc2ccc(Cl)c(Cl)c2)[C@@H](C)CN([C@H](C)CO)C3=O)cc1	98*!	-4[16.7 µM]	16
30	C[C@@H]1CN([C@H](C)CO)C(=O)c2cccc(NS(=O)(=O)c3cccs3)c2O[C@@H]1CN(C)Cc1ccc(Cl)c(Cl)c1	5[16.7 µM]	90*[16.7 µM]	13
31	C[C@H](CO)N1C[C@H](C)[C@@H](CN(C)Cc2ccc(Cl)c(Cl)c2)Oc2c(NS(=O)(=O)c3ccccc3)cccc2C1=O	106*![16.7 µM]	33[16.7 µM]	-12
32	C[C@@H]1CN([C@H](C)CO)C(=O)c2cccc(NS(=O)(=O)c3ccccc3)c2O[C@H]1CN(C)Cc1ccc(Cl)c(Cl)c1	24[16.7 µM]	26[16.7 µM]	-9
33	Cc1c(NC(=O)CSc2ccc3c(c2)OCCO3)c(=O)n(-c2ccccc2)n1C	-10	3	-11
34	CC(C)Cn1c(N)c(C(=O)COC(=O)c2ccc([N+](=O)[O-])o2)c(=O)n(C)c1=O	.	15	.
35	Cc1ccccc1Oc1cc(-n2ncc(Cl)c(Cl)c2=O)ncn1	-20	-12	-4
36	CCN(CC)S(=O)(=O)c1cccc(NC(=O)CC2CCCC2)c1	26	-16	-2

item	FN deposition inh	Cneo AK release	PGC1a acetyl inh
25	1	3	-2
26	-3	34	5
27	-5	0	.
28	-9	.	.
29	-5	1	-27
30	.	2	-6
31	.	-3	-31
32	.	-9	-9
33	0	0	2
34	13	.	.
35	14	-4	69*
36	-2	0	3

# Additional records.
item	Structure	miR-122 sensor	Env fusion inh	UUG fidelity
37	CCN(CC)S(=O)(=O)c1cccc(NC(=O)Nc2cccc(C(F)(F)F)c2)c1	-23	118*	23
38	Cn1c(=O)c2c(nc(OC3CCCC3)n2C)n(C)c1=O	.	.	-9
39	COc1cccc(NC(=O)c2cccc(OC)c2OC)c1	3	-159	0
40	COc1cccc(C(=O)Nc2ccc3[nH]c(=O)[nH]c3c2)c1OC	-3	60*	-2
41	N=C1C(c2nc(-c3cccc([N+](=O)[O-])c3)cs2)=C(O)CN1NC(=O)c1ccco1	.	-10	.

item	FN deposition inh	Cneo AK release	PGC1a acetyl inh
37	-6	-2	22
38	-1	5	3
39	1	-3	-7
40	2	-1	8
41	0	.	.

# Reprinted at random: 2 entries already listed
item	Structure	miR-122 sensor	Env fusion inh	UUG fidelity
41	N=C1C(c2nc(-c3cccc([N+](=O)[O-])c3)cs2)=C(O)CN1NC(=O)c1ccco1	.	-10	.
40	COc1cccc(C(=O)Nc2ccc3[nH]c(=O)[nH]c3c2)c1OC	-3	60*	-2

item	FN deposition inh	Cneo AK release	PGC1a acetyl inh
41	0	.	.
40	2	-1	8
